Measurements reported in paper PMC8224972, “Thiazide and other Cl-benzenesulfonamide-bearing clinical drug affinities for human carbonic anhydrases” (PLoS ONE, 2021).

By UniProt entry, the sequences of proteins in these tests, tags left out. Where a name states a change or a piece, a line headed by the entry shows the natural chain unless it says otherwise. Residues count along the entry.
UniProt O43570, 25-354: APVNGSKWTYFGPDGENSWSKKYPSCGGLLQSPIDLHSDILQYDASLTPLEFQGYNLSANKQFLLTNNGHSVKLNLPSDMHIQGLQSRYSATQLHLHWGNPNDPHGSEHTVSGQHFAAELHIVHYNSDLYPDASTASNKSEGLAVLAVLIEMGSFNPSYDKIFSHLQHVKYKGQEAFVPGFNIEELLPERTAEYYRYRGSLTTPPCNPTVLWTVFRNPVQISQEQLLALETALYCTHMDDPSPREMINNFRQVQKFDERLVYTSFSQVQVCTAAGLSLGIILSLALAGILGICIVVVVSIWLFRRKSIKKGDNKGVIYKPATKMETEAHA
UniProt P43166: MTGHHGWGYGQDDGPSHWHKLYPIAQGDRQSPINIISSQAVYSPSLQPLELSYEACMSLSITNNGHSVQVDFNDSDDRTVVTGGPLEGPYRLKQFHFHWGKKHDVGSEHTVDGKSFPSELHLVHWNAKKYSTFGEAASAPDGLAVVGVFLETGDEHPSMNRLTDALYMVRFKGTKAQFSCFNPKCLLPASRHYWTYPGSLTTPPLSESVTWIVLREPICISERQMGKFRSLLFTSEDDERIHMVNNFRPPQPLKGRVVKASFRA
UniProt P35218, 39-305: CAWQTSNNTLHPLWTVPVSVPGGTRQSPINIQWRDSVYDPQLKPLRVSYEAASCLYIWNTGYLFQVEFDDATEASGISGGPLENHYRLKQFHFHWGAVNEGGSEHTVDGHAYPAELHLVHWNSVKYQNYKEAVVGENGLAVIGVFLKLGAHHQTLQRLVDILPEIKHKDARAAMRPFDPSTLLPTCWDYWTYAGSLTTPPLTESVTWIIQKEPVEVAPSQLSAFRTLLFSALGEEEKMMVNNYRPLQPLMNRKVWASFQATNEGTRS

Key:
Assay in all cases: Fluorescence-based thermal shift assay (FTSA)
[1] = molecular target: CA XII (Homo sapiens, UniProt O43570)
[2] = molecular target: CA VII (Homo sapiens, UniProt P43166)
[3] = molecular target: CA VA (Homo sapiens, UniProt P35218)

| SMILES | Kd [1] [nM] | Kd [2] [nM] | Kd [3] [nM] |
| --- | --- | --- | --- |
| NS(=O)(=O)c1cc(Cl)c(Cl)c(S(N)(=O)=O)c1 [Compound 2, Dichlorphenamide] | 3.4 | 0.46 | – |
| NS(=O)(=O)c1cc(C(=O)O)c(NCc2ccco2)cc1Cl [Compound 15, Furosemide] | – | 620 | > 200000 |
